Results published in patent US6844190B2, “St-B17 serotonin receptor” (The United States of America as represented by the …, priority 1992, dated 2005).

Protein sequences, listed by entry. Tags and fused reporters are not part of them. Chains listed by the source or under a name are the forms on record and can include a tag or linker.
UniProt P31388, with tags, fused parts or gaps L57V: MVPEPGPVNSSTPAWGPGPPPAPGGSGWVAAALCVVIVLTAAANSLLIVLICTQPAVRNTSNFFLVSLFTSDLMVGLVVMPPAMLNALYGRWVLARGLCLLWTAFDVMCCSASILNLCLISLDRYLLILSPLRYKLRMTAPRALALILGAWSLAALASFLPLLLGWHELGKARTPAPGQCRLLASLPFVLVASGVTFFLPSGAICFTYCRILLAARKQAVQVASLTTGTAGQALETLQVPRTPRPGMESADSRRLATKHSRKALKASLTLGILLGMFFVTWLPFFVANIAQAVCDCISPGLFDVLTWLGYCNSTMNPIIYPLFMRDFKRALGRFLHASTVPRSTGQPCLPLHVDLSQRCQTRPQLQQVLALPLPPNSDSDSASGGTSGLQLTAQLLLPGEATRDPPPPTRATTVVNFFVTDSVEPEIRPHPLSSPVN

Tests used:
[1] = target: T1, St-B17 stably expressed in HEK-293 cells (Rattus norvegicus, UniProt P31388, L57V); assay: cAMP accumulation in intact HEK-293 cells stably expressing St-B17; assay type: cell-based; conditions: 10 μM final concentration, FIG. 5
T1 construct: expressed in transfected cells
Method: Human Embryonic Kidney cells (HEK 293 available from the ATCC) were stably co-transfected in 150mm dishes by the CaPO4 technique with 30 μg of pSRα-B17 and 3 μg of pMam-neo (INVITROGEN). These HEK 293 cells were then subjected to selection with 600 μg/ml genetecin (G418) (GIBCO). The resistant colonies were collected and screened for receptor expression by [^125I]-LSD binding as described in Example 6.
Intracellular cAMP levels were determined after a 5 minute incubation of intact cells with various test compounds at 37° C. in the presence of the cAMP phosphodiesterase inhibitor RO-20-1724, using a modification of a previously described cAMP assay (Monsma, F. J., Jr., Barton, A. C., and Sibley, D. R. (1990) J. Neurochemistry 54, 1200-1207) wherein the adrenal cAMP binding protein was replaced with 0.8 mg/ml protein kinase A in water.

[2] = target: T2, St-B17 serotonin receptor (Rattus norvegicus, UniProt P31388, L57V); assay: [125I]-LSD competition binding, Cos-7 cell membranes expressing St-B17; set-up: expressed in transfected cells; host or cells: Cos-7 cells, transient transfection, crude membranes; conditions: qualitative statement
Method: (§1) This experiment was performed on Cos-7 cell membranes expressing the St-B17 serotonin receptor.

[3] = target: T2, St-B17 serotonin receptor; assay: [3H]-5-HT competition binding, Cos-7 cell membranes expressing St-B17; set-up: expressed in transfected cells; host or cells: Cos-7 cells, transient transfection, crude membranes; conditions: 5 nM [3H]-5-HT, Cos-7 membranes, n=3, Cheng-Prussoff from IC50; read-out: Ki vs. [3H]-5-HT, Mean ± SEM
[4] = target: T3, St-B17 serotonin receptor (Rattus norvegicus, UniProt P31388); assay: [125I]-LSD competition binding, Cos-7 cell membranes expressing St-B17; conditions: 0.5 nM [125I]-LSD, Cos-7 membranes, n=3, Cheng-Prussoff from IC50; read-out: Ki vs. [125I]-LSD, Mean ± SEM
T3 construct: expressed in transfected cells; host or cells: Cos-7 cells, transient transfection, crude membranes
Method: as §1

Compound: CSc1ccc2c(c1)C(N1CCN(C)CC1)Cc1ccccc1S2 (stereo not drawn) [Methiothepin]
- effect on cAMP levels on their own (in words) [1]: no significant effect on cAMP levels
- effect on the cAMP response elicited by 5-HT (in words) [1]: substantially inhibit the response elicited by 5-HT
- functional classification at St-B17 receptor [1]: antagonists
- affinity for St-B17 (in words) [2]: relatively high affinity
- Ki [3]: 0.39 ± 0.063 nM
- Ki [4]: 1.84 ± 0.23 nM
